In ChEMBL document CHEMBL5380794, “Discovery of a Potent and Selective STAT5 PROTAC Degrader with Strong Antitumor Activity In Vivo in Acute Myeloid Leukemia” (J Med Chem, 2023):

Tests used:
[1] = biological target: T1, Signal transducer and activator of transcription 5A (Homo sapiens) (UniProt P42229); assay: Inhibition of STAT5 phosphorylation in human MV4-11 cells assessed as reduction in STAT5 level at 1 uM measured for 6 hrs by Western blot analysis; assay type: cell-based
T1 sequence (whole entry): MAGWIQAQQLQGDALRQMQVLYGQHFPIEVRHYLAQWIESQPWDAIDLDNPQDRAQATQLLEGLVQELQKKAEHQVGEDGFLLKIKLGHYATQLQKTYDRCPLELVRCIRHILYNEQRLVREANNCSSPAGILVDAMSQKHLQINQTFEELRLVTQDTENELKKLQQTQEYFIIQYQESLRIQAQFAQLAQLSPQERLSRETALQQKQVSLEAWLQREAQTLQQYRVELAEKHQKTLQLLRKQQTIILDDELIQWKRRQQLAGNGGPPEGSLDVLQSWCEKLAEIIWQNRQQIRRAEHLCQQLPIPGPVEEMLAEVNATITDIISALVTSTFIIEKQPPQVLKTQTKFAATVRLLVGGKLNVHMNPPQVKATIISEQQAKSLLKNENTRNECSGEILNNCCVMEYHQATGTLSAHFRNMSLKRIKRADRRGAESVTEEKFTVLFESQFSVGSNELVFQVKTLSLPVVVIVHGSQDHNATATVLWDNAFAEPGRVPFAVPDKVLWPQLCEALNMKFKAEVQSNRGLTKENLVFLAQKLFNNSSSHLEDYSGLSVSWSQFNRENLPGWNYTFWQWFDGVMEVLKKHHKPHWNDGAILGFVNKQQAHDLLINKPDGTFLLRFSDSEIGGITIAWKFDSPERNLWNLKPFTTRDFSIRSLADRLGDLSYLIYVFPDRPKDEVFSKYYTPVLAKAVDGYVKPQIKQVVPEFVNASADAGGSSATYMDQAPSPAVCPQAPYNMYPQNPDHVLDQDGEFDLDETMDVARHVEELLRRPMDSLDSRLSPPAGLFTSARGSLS

[2] = biological target: T1, Signal transducer and activator of transcription 5A (Homo sapiens); assay: Inhibition of STAT5 phosphorylation in human MV4-11 cells assessed as reduction in […] phosphorylation at Y694 residue at 0.2 uM measured for 6 hrs by Western blot analysis; assay type: cell-based

inhibition [1]: > 95%
inhibition [2]: > 80%
SMILES: CN(CCCC#Cc1cccc2c1CN(C1CCC(=O)NC1=O)C2=O)C(=O)CCN(C(=O)[C@@H]1CCCN1C(=O)[C@@H](NC(=O)c1cc2cc(C(F)(F)P(=O)(O)O)ccc2s1)C(C)(C)C)c1ccc(-c2nccs2)cc1 (some centres not stated)
